Apparent affinities of Ab-95 variants for a coronavirus HR2 peptide

All variants were tested on one target, the spike HR2 peptide PDVDLGDISGINAS (SARS-CoV-2).

Parent: Ab-95, a human scFv built as VH, a (GGGGS)3 linker, VL. Only the CDRs of the light chain vary.
VH: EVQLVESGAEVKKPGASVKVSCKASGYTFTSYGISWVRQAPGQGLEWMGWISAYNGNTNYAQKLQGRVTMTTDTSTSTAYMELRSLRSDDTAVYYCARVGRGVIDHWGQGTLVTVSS
VL: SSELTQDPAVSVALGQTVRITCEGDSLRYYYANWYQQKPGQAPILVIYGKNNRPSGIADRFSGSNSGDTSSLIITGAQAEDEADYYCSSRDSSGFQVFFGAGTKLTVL

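The parent was found by panning a naive human phage display library on the peptide. Library AAYL52 holds single substitutions and randomly drawn double and triple substitutions in the CDRs. The scFvs were displayed on barcoded MATa yeast, the peptide on MATalpha yeast. After mating in shaken culture at 30 °C for 16 h, diploids were selected and their barcode pairs sequenced. The ratio of observed to expected reads was calibrated, replicate by replicate, on BCL2-family standards whose Kd was known from biolayer interferometry. Each pool was mated in three replicate cultures.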

Each variant is given by its three light chain CDRs, as the data file delimits them; those of the parent are EGDSLRYYYAN, GKNNRPS, SSRDSSGFQVF.
This list gathers variants with a substitution at G24 (VL, numbered from residue 1).
Values are log10 of the apparent Kd in nM; lower means stronger binding.
Replicates are averaged; those with no signal do not enter the mean.
"no signal" marks a missing value. The strain was present, yet no cells mated with the target were sequenced in any replicate, which points to weak or no binding.
For reference, the parent read 2.31 as the reference entry and 2.25 as a member of this library.
Three control strains display no target. For library AAYL52, 28% of the pairings with them gave a signal, with a median of 3.91 and one signal in twenty below 2.90, so weak values seen in few replicates may be background.

For ENDSLRYKYAN | GKNNRPS | SSRDSRGFQVF, the assay gave 3.32 (1 of 3 replicates). With ETDSLRYYYAA | GKLNRPS | SSRDSSGFQVF the result was no signal (0 of 3 replicates). The variant RADSLEYYYAN | GKNNRPS | SSRDSSGFQVF gave 2.54 (3 of 3 replicates). The variant EVDSLRYYYAN | PKNCRPS | SSRDSSGFQVF gave 5.84 (1 of 3 replicates). For ENDSLRYFYAN | GKNNRPS | SSRDSSGFQWF, the assay gave 3.64 (2 of 3 replicates).

For EADSLRYYYAN | GKNNRPS | SSRDSSGFQCF, the assay gave 2.85 (3 of 3 replicates). The variant ETDSLRYYYAN | GKNNRPS | SSWWSSGFQVF showed 3.31 (3 of 3 replicates). For EYCSLRYYYAN | GKNNRPS | SSRDWSGFQVF, the assay gave 4.01 (1 of 3 replicates). The variant ENDSLRYYYAN | GKNNRPS | SSRDSSNFQVF gave 4.85 (1 of 3 replicates). The variant EADSLRYYYAN | GKPNRPS | SSRDSSGFQVF showed 4.66 (3 of 3 replicates).

For EMDSLRYYYAN | GKNNLPS | SSRDSSGFQEF, the assay gave no signal (0 of 3 replicates). With EVGSARYYYAN | GKNNRPS | SSRDSSGFQVF the result was 2.73 (3 of 3 replicates). The variant EEDSLRYYYQN | GKNNRPS | SSRDSSGDQVF showed 3.74 (1 of 3 replicates). For EYQSLRYYYAN | GKYNRPS | SSRDSSGFQVF, the assay gave 2.97 (2 of 3 replicates). The variant EFDSLRNYYAN | GKNNRPS | SSADSSGFQVF gave 4.22 (2 of 3 replicates).

For ESDSLRYTYAN | GKNNRPS | SSRDSSGQQVF, the assay gave 2.15 (3 of 3 replicates). With ENDSLRYRYAN | GKYNRPS | SSRDSSGFQVF the result was 3.71 (3 of 3 replicates). For ECDSLRYYYAN | GKNNRPS | SSRDSSGFQVF, the assay gave 4.41 (2 of 3 replicates). With LLDSLRYYYAN | GKNNRPS | SSRDSSGFQGF the result was 3.94 (2 of 3 replicates). With EEASLRYYYAN | GKNNRPS | SSRDSSGFQVF the result was 2.62 (3 of 3 replicates).

With ELDSLRAYYAN | GKNNCPS | SSRDSSGFQVF the result was 4.35 (2 of 3 replicates). The variant EHDSLRYYLAN | GKANRPS | SSRDSSGFQVF gave 2.43 (3 of 3 replicates). For ERDSLRYYYAN | GKNERPS | SSRDSSGFSVF, the assay gave 3.38 (3 of 3 replicates). For EPDSLRYYYAN | GKNNRPS | SSRDSSGFNVF, the assay gave no signal (0 of 3 replicates). With EKDSLRYYYAN | GKNNRPS | SSRDSTGSQVF the result was 3.11 (2 of 3 replicates).

With ETDSLRYYYAN | GKNNAPS | SSRDSSGFHVF the result was 3.09 (3 of 3 replicates). The variant RKDSLRYYYAN | GKNNRPS | SSRDSTGFQVF gave 4.18 (1 of 3 replicates). The variant EKDSLRYYYAS | GKNNRPS | SSRESSGFQVF showed 5.17 (3 of 3 replicates). The variant EYDSLRYYYAN | GKNNRPS | SSRGLSGFQVF gave 3.52 (2 of 3 replicates). With WLDSLRYYYAN | GKNNRIS | SSRDSSGFQVF the result was no signal (0 of 3 replicates).

For ETDNLRYYYAN | GKNNRPS | SSRDSSGYQVF, the assay gave 2.95 (3 of 3 replicates). For ELDSLRYYYAN | GKQNRPS | SSRDSSGNQVF, the assay gave no signal (0 of 3 replicates). With EQSSLRYYYAN | GKNNRPS | SSRDSSGFQVS the result was no signal (0 of 3 replicates). The variant EMDSLRYYYAN | WKNNVPS | SSRDSSGFQVF gave 4.56 (2 of 3 replicates). For ELASLRYYQAN | GKNNRPS | SSRDSSGFQVF, the assay gave 3.83 (1 of 3 replicates).

The variant EFDSLRYYYAN | GFNNRPS | SGRDSSGFQVF showed 4.74 (2 of 3 replicates). For EADSLRYYYAN | GKNNRPS | SERMSSGFQVF, the assay gave 3.66 (2 of 3 replicates).

For reference, 3 entries of the list once more:

CDR-L1,CDR-L2,CDR-L3,"log10 Kd (nM), mean",replicates with signal
EPDSLRYYYAN,GKNNRPS,SSRDSSGFNVF,no signal,0/3
EADSLRYYYAN,GKPNRPS,SSRDSSGFQVF,4.66,3/3
EEDSLRYYYQN,GKNNRPS,SSRDSSGDQVF,3.74,1/3

Source: Engelhart et al. 2022 (doi:10.1038/s41597-022-01779-4), MIT Lincoln Laboratory and A-Alpha Bio; data file from the FLAb repository.